Patent US20220395468A1, “Transdermal Drug Delivery Systems for Administration of a Therapeutically Effective Amount of Lenalidomide and Other Immunomodulatory Agents” (Starton Therapeutics, Inc., priority 2021, published 2022)

Conditions: in two polar aprotic solvents N-methyl-2-pyrrolidone (NMP) and dimethyl sulfoxide
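Also: part of a solubility screen of the drug across over 50 solvents and polymers, with emphasis on polar aprotic solvents.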

Nc1cccc2c1CN(C1CCC(=O)NC1=O)C2=O (stereo not shown) [Lenalidomide, 3-(4-amino-1-3-dihydro-1-oxo-2H-isoindol-2yl)-2,6-piperidinedione]
solubility: More than 20%
